The record followed here is US20260256723A1, “THIOL-BASED COMPOUNDS AND COMPOSITIONS AND USES THEREOF” (CASE WESTERN RESERVE UNIVERSITY, priority 2022, published 2026).

For the assay, the system named is rats receiving infusion of fentanyl. In words: Fentanyl-induced constipation and anuria in metabolic cages. Particulars: fentanyl infusion 6 h; L-NAC at 60 and 90 min; samples over 5 h. The class given is in vivo, Sprague-Dawley rat.

The structures appear in SMILES notation.

Take `CC(=O)N[C@@H](CS)C(=O)O` [L-NAC, N-acetyl-L-cysteine]: the “Urine production (words, FIG. 13B)” value is given as “normalized by L-NAC injections”.
